Values of other authors as cited in patent publication US5421897A, “Abatement process for contaminants” (priority 1992, dated 1995).

Tested on: man
Conditions: inhl-wmm; cited from earlier work

Question: With Mercury as the substance, how does the TCLo read?
Answer: 150 μg/m^3
